Literature values as cited in patent US7927622B1, “Methods of transnasal transport/immunization with highly adaptable carriers” (priority 1999, dated 2011).

Key:
[1] = in vivo, cited from earlier work
[2] = in vivo, inhaled or intranasal; cited from earlier work
[3] = in vivo, inhaled or intranasal; cited from earlier work; remark: listed apart in the source

| Substance | relative bioavailability ([1]; po) [%] | half-life [1] [min] | mean absorption half-life [1] | time of peak levels [1] [min] | nasal insulin bioavailability [2] | bioavailability [3] |
| --- | --- | --- | --- | --- | --- | --- |
| desglycinamide-[Arg8]vasopressin [DGAVP] | 0.7 | 35 to 38 | around 8 min | 15 |  |  |
| insulin |  |  |  |  | 4-9% | greater than 10% |
